{"source": "paper PMC3272158", "about": "(Nature structural & molecular biology, 2012)", "biological_target": "LeuT (LeuT-WT) (Aquifex aeolicus, UniProt O67854)", "conditions": "150 mM Tris/Mes pH 7.5, 50 mM NaCl, 1 mM TCEP, 0.1% DDM; 1 μM 3H-Leu; S2 site (extracellular vestibule); value is residual binding", "data": [{"smiles": "CN(C)CCCN1c2ccccc2CCc2ccc(Cl)cc21", "note": "[clomipramine]", "values": [{"measurement": "% of 3H-Leu binding in the absence of CMI, at 1 mM CMI", "value": "45.2±4.7", "unit": "%"}]}]}
